Usually inhibition stands for the change of the read-out against control, counted positive when it falls.

Only a part is listed here, and it is no random draw. Results with a measured potency or affinity are listed apart. Some structures show a salt or complex split into parts, the way the source records it. Active and inactive are the calls of the source. How the calls were made is not given here.

This experiment in a line: Inhibition of PhoP regulon, Salmonella typhi GFP reporter cells, confirmation, 4 h (AID 1850).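 Further: 0% = induced wells with vehicle and 100% = uninduced wells.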 As to conditions: Salmonella Typhi PhoP-promoter GFP reporter, fluorescence, at 50 µM, stronger effect = higher value.
With `COc1ccc(OP(C)(=O)Nc2cccc(F)c2)cc1` (stereo not given), the inhibition was inactive: -5.08%.
Next, `COc1ccccc1OP(C)(=O)Nc1cc(Cl)ccc1C` (stereo not given): inactive: 2.5%.
Next, `Cc1cc(C)cc(OP(C)(N)=O)c1` (stereo not given): inactive: -11.2%; `CCOC(=O)c1ccc(NP(C)(=O)Oc2ccccc2)cc1` (stereo not given): inactive: -10.3%.
Turning to `Cc1ccc(NP(C)(=O)Oc2ccccc2)c(C)c1` (stereo not given), the inhibition was inactive: -0.8%.
For the molecule `COc1ccccc1OP(C)(=O)Nc1ccc(C)cc1` (stereo not given), the inhibition was inactive: -0.37%.
`Cc1cccc(C)c1OP(C)(N)=O` (stereo not given): the inhibition is inactive: 4.99%.
With `CC(C)(C)c1ccc(OP(C)(=O)Nc2ccc(SC(F)(F)F)cc2)cc1` (stereo not given), the inhibition is inactive: -6.94%.
Take `O=[N+]([O-])c1ccc2c(c1)C=Nc1ccccc1O2`: the inhibition is inactive: -3.36%.
With `O=[N+]([O-])c1cc([N+](=O)[O-])c(Nc2cccnc2)c([N+](=O)[O-])c1` the figure was inactive: -18%; with `CCN(CC)CCCOC(=O)C(O)(c1ccccc1)c1ccccc1`, inactive: 5.97%; with `CP(=O)(Nc1ccccn1)Oc1ccc(Cl)cc1` (stereo not given), inactive: 1.52%.
For `CCOP(C)(=S)SCC(=O)NC(C)C(=O)O` (stereo not given), the inhibition was inactive: 14.9%.
Next, `O=[N+]([O-])c1cc([N+](=O)[O-])c(O)c([N+](=O)[O-])c1.c1ccc(Oc2ccncc2)cc1`: inactive: -5.22%; `CCOC(=O)c1ccc(NP(C)(=O)Oc2ccc(OC)cc2)cc1` (stereo not given): inactive: -4.98%.
As to `Cc1cc(C)cc(OP(C)(=O)Nc2ccc(SC(F)(F)F)cc2)c1` (stereo not given), the inhibition is inactive: -1.5%.
Next, `CCc1ccc(OP(C)(=O)N2CCN(c3ccc([N+](=O)[O-])cc3)CC2)cc1` (stereo not given): inactive: 8.66%; `CP(=O)(NC(=O)Nc1ccccc1)Oc1ccccc1` (stereo not given): inactive: -12.8%; `CP(=O)(Oc1ccccc1)OC(c1ccccc1)C(F)(F)F` (stereo not given): inactive: 2.47%.
For `CP(=O)(Nc1ccc(SC(F)(F)F)cc1)Oc1ccc(Cl)cc1` (stereo not given), the inhibition was inactive: -10.5%.
For the molecule `Cc1cccc(C)c1OP(C)(=O)Nc1ccc(SC(F)(F)F)cc1` (stereo not given), the inhibition was inactive: -1.16%.
In the case of `COc1ccccc1OP(C)(=O)Nc1ccccc1` (stereo not given), the inhibition was inactive: -11.8%.
On to `CP(=O)(Nc1ccccc1Br)Oc1ccccc1` (stereo not given), for which the inhibition is inactive: -5.32%.
In the case of `CP(=S)(Nn1cnnc1)Oc1ccccc1` (stereo not given), the inhibition is inactive: -3.92%.
For the molecule `CP(=O)(Nc1ccc(SC(F)(F)F)cc1)Oc1ccccc1` (stereo not given), the inhibition was inactive: -8.04%.
`CCCOc1ccc(NP(C)(=O)Oc2ccc(Cl)cc2)cc1` (stereo not given): the inhibition is inactive: -4.95%.
`CN1CCCCC1COC(=O)C1(O)c2ccccc2CCc2ccccc21` (stereo not given): the inhibition is inactive: 19.9%.
With `COc1ccccc1OP(C)(=O)Nc1c(C)cccc1C` (stereo not given) the figure was inactive: 4.74%; with `CCOC(=O)C(CC)C1=NC(C)(C)Cc2ccccc21.O=[N+]([O-])c1cc([N+](=O)[O-])c(O)c([N+](=O)[O-])c1` (stereo not given), inactive: 5.19%.
In the case of `O=[N+]([O-])c1cc([N+](=O)[O-])c(Nc2nnnn2CCO)c([N+](=O)[O-])c1`, the inhibition is inactive: -7.66%.
With `CC1=C2N=C(C=C3N=C(C(C)=C4[N-][C@@](C)([C@@H]5N=C1[C@](C)(CCC(=O)NC[C@@H](C)OP(=O)([O-])O[C@H]1[C@@H](O)[C@@H](n6cnc7cc(C)c(C)cc76)O[C@@H]1CO)[C@H]5CC(N)=O)[C@@](C)(CC(N)=O)[C@@H]4CCC(N)=O)[C@@](C)(CC(N)=O)[C@@H]3CCC(N)=O)C(C)(C)[C@@H]2CCC(N)=O.[C-]#N.[Co+3]`, the inhibition is inactive: -4.86%.
As to `Cc1nc2ccc3ccccc3c2s1.O=[N+]([O-])c1cc([N+](=O)[O-])c(O)c([N+](=O)[O-])c1`, the inhibition was inactive: -8.76%.
With `O=[N+]([O-])c1cc([N+](=O)[O-])c(-c2cnn(-c3ccccc3)c2)c([N+](=O)[O-])c1`, the inhibition is inactive: -2.39%.
Regarding `O=[N+]([O-])c1cc([N+](=O)[O-])c(-n2nnc3ccccc32)c([N+](=O)[O-])c1`, the inhibition is inactive: 1.03%.
With `CP(=O)(Nc1cccc(Br)c1)Oc1ccccc1` (stereo not given), the inhibition is inactive: 12.2%.
Turning to `Cc1cc(C)cc(OP(C)(=O)Nc2ccccn2)c1` (stereo not given), the inhibition was inactive: -11.7%.
Consider `Cc1ccc(C)c(NP(C)(=O)Oc2ccccc2)c1` (stereo not given), for which the inhibition is inactive: 6.84%.
Take `Cc1cc(C)cc(OP(C)(=O)Nc2ccc(C)cc2C)c1` (stereo not given): the inhibition is inactive: 6.81%.
For the molecule `CCOC(=O)c1ccc(NP(C)(=O)Oc2cc(C)cc(C)c2)cc1` (stereo not given), the inhibition is inactive: 1.75%.
Turning to `COc1ccccc1OP(C)(=O)Nc1cccc(Br)c1` (stereo not given), the inhibition is inactive: 7.26%.
In the case of `CC1=NCCc2c1[nH]c1ccccc21.O=[N+]([O-])c1cc([N+](=O)[O-])c(O)c([N+](=O)[O-])c1`, the inhibition was inactive: 7.38%.
On to `O=C(O)c1cccc(Nc2c([N+](=O)[O-])cc([N+](=O)[O-])cc2[N+](=O)[O-])c1`, for which the inhibition was inactive: 0.43%.
Next, `O=[N+]([O-])c1cc([N+](=O)[O-])c(OC2CCCCC2O)c([N+](=O)[O-])c1` (stereo not given): inactive: -3.57%; `CCCCCOc1ccc(NP(C)(=O)Oc2ccc(Cl)cc2Cl)cc1` (stereo not given): inactive: 4.21%; `CP(=O)(Nc1ccccc1)Oc1ccc(F)cc1` (stereo not given): inactive: -1.05%.
As for `CCN(CC)CCCOC(=O)C(O)(c1ccccc1)C1CCCCC1` (stereo not given), the inhibition is inactive: -5.12%.
On to `COc1ccc(OP(C)(=O)Nc2ccc(SC(F)(F)F)cc2)cc1` (stereo not given), for which the inhibition is inactive: -2.97%.
Consider `CCOC(=O)c1ccc(NP(C)(=O)Oc2ccc(F)cc2)cc1` (stereo not given), for which the inhibition was inactive: -6.33%.
`COc1ccc2c(c1O)-c1c(O)c(OC)cc3c1[C@H](C2)[N+](C)(C)CC3.O=[N+]([O-])c1cc([N+](=O)[O-])c([O-])c([N+](=O)[O-])c1[O-]`: the inhibition is inactive: -20.5%.
Regarding `O=C(OCCN1CCN(CCOCc2ccccc2)CC1)C(O)(c1ccccc1)c1ccccc1`, the inhibition is inactive: 0.983%.
Take `O=C(OC1CN2CCC1CC2)c1ccc([N+](=O)[O-])cc1` (stereo not given): the inhibition was inactive: 1.73%.
Consider `CC(C)c1ccc(OP(C)(=O)Nc2ccc(SC(F)(F)F)cc2)cc1` (stereo not given), for which the inhibition was inactive: -0.81%.
In the case of `CP(=O)(Nc1ccccc1F)Oc1ccccc1` (stereo not given), the inhibition is inactive: -4.12%.
For `Cc1ccccc1NP(C)(=O)Nc1ccccc1C`, the inhibition is inactive: 6.18%.
For the molecule `CP(=O)(Nc1ccc2c(c1)OCCO2)Oc1ccccc1` (stereo not given), the inhibition was inactive: 2.02%.

These data come from PubChem BioAssay AID1850 (Southern Research Specialized Biocontainment Screening …, 2009).
